# Ab-14 light chain CDR variants: yeast mating affinities

The target is the same throughout: PDVDLGDISGINAS, from the HR2 region of SARS-CoV-2 spike.

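The parent was found by panning a naive human phage display library on the peptide. Designed CDR sequences, proposed from the first random library and measured here. Several design methods are mixed in this list. In AlphaSeq, yeast of one mating type display the scFv and yeast of the other type display the target. Pairs that bind mate more often; barcode pairs of the diploids are counted by sequencing. A regression on co-assayed BCL2-family reference pairs converts the normalised counts of each replicate to an apparent Kd. The assay was run in six technical replicates.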

Ab-14 is the parent antibody, in scFv form: VH, then a (GGGGS)3 linker, then VL. The heavy chain is unchanged in all variants.
VH: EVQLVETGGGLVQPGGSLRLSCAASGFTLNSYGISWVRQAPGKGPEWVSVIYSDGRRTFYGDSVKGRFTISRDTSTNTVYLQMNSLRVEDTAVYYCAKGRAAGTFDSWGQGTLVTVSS
VL: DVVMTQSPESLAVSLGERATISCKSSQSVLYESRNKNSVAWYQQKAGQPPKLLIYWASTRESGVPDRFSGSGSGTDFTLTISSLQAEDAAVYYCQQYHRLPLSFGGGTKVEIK

Each variant is given by its three light chain CDRs, as the data file delimits them; those of the parent are KSSQSVLYESRNKNSVA, WASTRES, QQYHRLPLS.
Variants here have more than six changes.
Kd is apparent (estimated from mating counts) and averaged on the log scale over replicates with a signal. Smaller is tighter.
Where no diploid with the target was found in any replicate, the entry reads "no signal": below detection, most likely a poor binder, though not proof of it.
A sequence measured in both rounds can read differently, since the two assays cover different ranges.

* KLSMSYRMESENKNSIA, ELVTRMS, QQYHRLPLS = 6.9 nM (6 of 6 replicates)
* MISQVMNSLTHTGNNVA, DLQERED, QQYFRLPLS = 5.6 nM (6 of 6 replicates)
* MMSQVTGMESKQRNNVA, QTSTREA, QQYDRLPLI = 2.2 nM (6 of 6 replicates)
* IISQVDAYEMRNKNSIA, DQSTRGS, QQYDRLPLS = 4.1 nM (6 of 6 replicates)
* KVDFSWWYESRNKNSVA, NASTRER, QQYHRLPLS = 1.3 nM (6 of 6 replicates)
* TISQMTSWMSNKKANVA, EVSTRLN, QQYDRLPLS = 14 nM (6 of 6 replicates)
* KFSQSWGMESRNKNQVA, NASTRMS, QQYHRLPLS = 2.6 nM (6 of 6 replicates)
* NLSAMTAHESVKEKNIA, ERSTREQ, QQYNRLPLS = 5.1 nM (6 of 6 replicates)
* KLQFGNLYESRNWNSVA, KASTRLQ, QQYHRLPLS = 12 nM (6 of 6 replicates)
* KLSTSVMLESRNVNSVA, DASQREE, QQYHRLPLS = 860 pM (6 of 6 replicates)
* IISGVMSVESKHKNSVA, NAETREY, QHYDRLPLS = 40 nM (5 of 6 replicates)
* KISMLINQTFEQSNNVA, EMVTRER, QQYNRLPLS = 140 nM (6 of 6 replicates)
* HVEHDWLLSNATMKAVA, NGATLAD, QQYGRLPLA = 4.7 nM (6 of 6 replicates)
* KIEWFSMDNRLTISAIA, EASTIYQ, QQYGHLPLS = no signal (0 of 6 replicates)
* MLSQMWAIGMKVSNSVA, QANMRFN, QQYDRLPLM = 20 nM (3 of 6 replicates)
* KVYILDDGGDRNKNSVA, HASTRES, QQYHRLPLS = 2.7 nM (6 of 6 replicates)
* KLSQVTEYESHMKNNVA, DLTTRGS, QDYHRLPLS = 6.5 nM (6 of 6 replicates)
* KLQFGNLYESRNKNSVA, KASTRLQ, QQYHRLPLS = 14 nM (6 of 6 replicates)
* KVQQMWLYGSRNCNSVA, DASQREE, QQYHRLPLS = 3.5 nM (6 of 6 replicates)
* HISQMVMYGSCNKNNVA, QVSMREE, QQYHRLPLS = 10 nM (6 of 6 replicates)
* VMFMGLYWGNIEHQAIA, NVTMREK, QQYHRLPLQ = 410 nM (4 of 6 replicates)
* MISQIYNMGQFAINSVA, QASQRNA, QQYDRLPLM = 12 nM (6 of 6 replicates)
* KLMGSMLYEQRMTNSVA, NASQRMS, QQYHRLPLS = 1.2 nM (6 of 6 replicates)
* KLSQEVLMGDRNKNSVA, KASQRLS, QQYHRLPLS = 2.7 nM (6 of 6 replicates)
* TVSQVHEMLSRNKNSVA, DANTRPS, QQYDRLPLS = 1.9 nM (6 of 6 replicates)
* HLYTGNYTQKNRTNAIA, DARERVQ, QQYSRLPIM = 25 nM (6 of 6 replicates)
* VLQQSGLMESRNKNSVA, SASTRLP, QQYHRLPLS = 3.6 nM (6 of 6 replicates)
* HISMMVGTKGGAKNSVA, NEETRYD, QQYHRLPLS = 1.9 nM (6 of 6 replicates)
* ALQQLELYGSRNKNSVA, NASTRED, QQYHRLPLS = 1.9 nM (6 of 6 replicates)
* HMTEQVFQGSRNKYNIA, AEVKRVY, QQYQRLPLM = 770 nM (3 of 6 replicates)
* RGQEDLQKGTNIGNNIA, EAQTVID, QQYAHLPLQ = 6.9 nM (6 of 6 replicates)
* KLRFSVMEESRNKNSVA, SASLREW, QQYHRLPLS = 1.5 nM (6 of 6 replicates)
* MISQLFMYGSRQYNSVA, QASTRES, QQYDRLPLI = 2.6 nM (6 of 6 replicates)
* SLYENYQMGGLHTNAVA, DANQMMR, QHYNRLPLA = 1.5 nM (6 of 6 replicates)
* NIYQAMHTLMQAKNNVA, DVTERND, QQYFRLPLS = 3.9 nM (1 of 6 replicates)
* QLSVFELQGMSWMQSIA, QADHRTE, QQFSRLPLV = 3.5 nM (6 of 6 replicates)
* NIVGRVNGKGTTTKNIA, DAEFRAG, QQYSRLPLS = 1.6 nM (6 of 6 replicates)
* TITHFMDNLSQNRNNVA, DTSTLGS, QSYDRLPLS = 3.1 nM (6 of 6 replicates)
* SMYPFDVAIGEGTQNVA, HVSVRAL, QQYDRLPLV = 54 nM (6 of 6 replicates)
* HLSLRLSYGNMLQKAVA, EVQARMT, QQYARLPLL = 7.5 nM (6 of 6 replicates)
* KITLIFSNKGNSDHSVA, NAETLAH, QQYYMLPLM = 1.4 nM (6 of 6 replicates)
* KLMMFMQGYGCMKNNIA, NLSEVAT, QQYAQLPLV = 600 nM (2 of 6 replicates)
* KFSQAWMYEQRNKNSVA, NASQRES, QQYHRLPLS = 630 pM (6 of 6 replicates)
* KLRQQTLYESRNKNSVA, MASQREE, QQYHRLPLS = 1.6 nM (6 of 6 replicates)
* KIGATLNTLYEKKNNVA, DLVMRES, QQYHRLPLS = 1.7 nM (6 of 6 replicates)
* SLTVSDNYGSQLENNIA, QGVCKAE, QQYIRLPLI = 100 nM (6 of 6 replicates)
* TLYGLSNSMSINKDSVA, EMTTREE, QQYDRLPLV = no signal (0 of 6 replicates)

The last 4 entries again:

* KLRQQTLYESRNKNSVA, MASQREE, QQYHRLPLS = 1.6 nM (6 of 6 replicates)
* KIGATLNTLYEKKNNVA, DLVMRES, QQYHRLPLS = 1.7 nM (6 of 6 replicates)
* SLTVSDNYGSQLENNIA, QGVCKAE, QQYIRLPLI = 100 nM (6 of 6 replicates)
* TLYGLSNSMSINKDSVA, EMTTREE, QQYDRLPLV = no signal (0 of 6 replicates)

The authors averaged sequences with at least three values out of six and counted those with two or fewer as poor binders.
As a blank, each scFv also met three strains without target: over all light chain designs, 4% of these pairings were detected, typically at 430 nM and seldom below 38 nM.

Data: MIT Lincoln Laboratory AlphaSeq set, Li et al. 2023, doi:10.1038/s41467-023-39022-2, as distributed in FLAb.